According to PubChem BioAssay AID690 (Sanford-Burnham Center for Chemical Genomics, 2007):
The list shows a part of the results, in another mix than the full data. Entries with a potency or affinity are not part of this list. Active and inactive are the calls of the source. No rule for the calls is given here.

Protein sequences, listed by entry. Tags and fused reporters are not part of them.
UniProt P05187, whole entry: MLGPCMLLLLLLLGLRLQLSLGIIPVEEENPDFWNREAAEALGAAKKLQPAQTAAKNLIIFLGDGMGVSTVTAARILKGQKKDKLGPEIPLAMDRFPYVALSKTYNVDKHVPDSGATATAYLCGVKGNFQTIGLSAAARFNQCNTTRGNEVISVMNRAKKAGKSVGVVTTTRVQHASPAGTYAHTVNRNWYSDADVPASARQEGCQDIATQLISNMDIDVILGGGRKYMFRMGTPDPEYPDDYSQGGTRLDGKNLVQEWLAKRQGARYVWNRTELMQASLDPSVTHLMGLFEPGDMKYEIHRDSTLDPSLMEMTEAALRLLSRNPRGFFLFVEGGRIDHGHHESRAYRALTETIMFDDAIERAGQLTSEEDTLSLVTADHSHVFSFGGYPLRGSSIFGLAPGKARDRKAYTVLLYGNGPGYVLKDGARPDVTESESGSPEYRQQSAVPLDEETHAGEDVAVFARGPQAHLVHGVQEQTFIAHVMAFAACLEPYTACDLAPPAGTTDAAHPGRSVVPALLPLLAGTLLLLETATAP

What follows are compounds tested against Alkaline phosphatase, placental type (Homo sapiens) (UniProt P05187) (assay: PLAP enzyme inhibitors, biochemical, luminescence, HTS (AID 690)). Conditions: purified PLAP, luminescent substrate; at 20 µM; active compounds read high.

Row | Structure (SMILES) | inhibition
1 | Fc1ccccc1NC1CCN(Cc2ccccc2)CC1 | inactive: -63.6%
2 | CCC(CO)(C(=O)OC1CN2CCC1CC2)c1ccccc1 (stereo not given) | inactive: -12.6%
3 | CCOc1ncccc1C(=O)NCC1(N2CCOCC2)CCCCC1 | inactive: -44.8%
4 | N/C(=N\O)c1c(N)no[n+]1[O-] | inactive: 9.6%
5 | c1ccc(CN2CCC(Nc3ccccc3)CC2)cc1 | inactive: -67.6%
6 | O=C(NCC1(N2CCOCC2)CCCCC1)c1cc(=O)[nH]c2ccccc12 | inactive: -35.8%
7 | N#CC1(Nc2ccccc2)CCN(CCc2ccccc2)CC1 | inactive: -17.5%
8 | O=C(NCC1(N2CCOCC2)CCCCC1)c1cc2ccccc2o1 | inactive: 0.7%
9 | O=C(OC1CN2CCC1CC2)C1c2ccccc2Oc2ccccc21 (stereo not given) | inactive: -31.5%
10 | COc1ccc(NC2CCN(CCc3ccccc3)CC2)c(OC)c1 | inactive: -57.6%
